Target: Cholecystokinin receptor type A (Rattus norvegicus, UniProt P30551)
Assay: Half-maximal inhibition of [125I]CCK-33 binding to cholecystokinin A receptor from rat pancreatic tissue

Sequences of proteins named here, by UniProt entry; tags and fusion partners are left off.
UniProt P30551, whole entry: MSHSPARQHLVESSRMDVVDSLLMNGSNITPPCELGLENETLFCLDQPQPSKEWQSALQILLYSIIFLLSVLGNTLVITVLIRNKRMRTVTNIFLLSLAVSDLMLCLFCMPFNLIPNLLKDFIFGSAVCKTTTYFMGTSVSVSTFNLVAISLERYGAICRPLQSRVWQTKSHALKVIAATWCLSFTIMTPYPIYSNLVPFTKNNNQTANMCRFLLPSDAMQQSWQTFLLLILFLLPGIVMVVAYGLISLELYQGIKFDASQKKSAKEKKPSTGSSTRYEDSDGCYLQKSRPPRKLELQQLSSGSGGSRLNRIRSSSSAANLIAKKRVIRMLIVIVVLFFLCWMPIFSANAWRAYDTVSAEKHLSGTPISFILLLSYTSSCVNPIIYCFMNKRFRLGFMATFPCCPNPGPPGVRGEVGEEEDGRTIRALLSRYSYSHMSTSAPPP

Compound | IC50 [nM]
CN1C(=O)C(NC(=O)c2ccc(Cl)cc2)N=C(c2ccccc2)c2ccccc21 (configuration not stated) | 8.3
O=C(NC1N=C(c2ccccc2F)c2ccccc2NC1=O)c1ccccc1Cl (configuration not stated) | 5500
